Patent US6652890B2, “Tea catechins as cancer specific proliferation inhibitors” (Purdue Research Foundation, priority 1999, dated 2003)

Experiments:
[1] = tested on: HeLa (human cervical carcinoma) cells; assay: Effect on intact cells in culture (growth, morphology, DAPI); assay type: cell-based; conditions: 5×10^−6 to 5×10^−5 M EGCg
[2] = tested on: BT-20 human mammary adenocarcinoma cells; assay: as above; assay type: cell-based; conditions: 5×10^−6 to 5×10^−5 M EGCg
Protocol: BT-20 human breast adenocarcinoma cells were cultured in Eagle's minimal essential medium nonessential amino acids and Earle's balanced salts supplement with 10% fetal bovine serum. Media were renewed as for MCF-10A cells.

Substance: (−) - epigallocatechin gallate [EGCg]
- Cell volume relative to untreated cells [1]: ~50%
- Cell volume relative to untreated cells [2]: ~50%
